Laboratory results: US20240376128A1, “N-CYCLOPROPYLPYRIDO [4, 3-D] PYRIMIDIN-4-AMINE DERIVATIVES AND USES THEREOF” (Jacobio Pharmaceuticals Co., Ltd., priority 2021, published 2024)
pIC50: −log10 of the molar value. Like-named read-outs stand apart in the source and are kept apart here.

Amino acid sequences for entries named in this document (tags omitted). A change or cut given only in a name is not applied to a line headed by its entry.
UniProt P01116: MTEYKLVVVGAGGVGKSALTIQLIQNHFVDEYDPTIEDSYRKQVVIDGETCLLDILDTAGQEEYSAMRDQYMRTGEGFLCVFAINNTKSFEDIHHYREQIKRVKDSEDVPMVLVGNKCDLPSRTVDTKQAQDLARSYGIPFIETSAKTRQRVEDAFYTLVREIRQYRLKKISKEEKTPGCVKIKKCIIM

Experiments:
[1] = molecular target: K-Ras G12D (Homo sapiens, UniProt P01116, G12D); assay: SOS1 catalyzed nucleotide exchange assay (GDP form K-Ras), TR-FRET; settings: read-out: Biochemical assays, IC50, K-Ras G12D GDP
[2] = tested on: K-Ras mutant and K-Ras WT cell lines indicated in Table 20; assay: 3D cell growth inhibition assay (CellTiter-Glo 3D, 6 days); assay type: cell-based; settings: Homo sapiens, 144 h
[3] = tested on: SW620 cell line (K-Ras G12V); assay: Phospho-ERK1/2(THR202/TYR204) HTRF assay; assay type: cell-based; settings: Homo sapiens, SW-620; SW620 cells (K-Ras G12V), 2 hours incubation; read-out: p-ERK, IC50(nM) SW620
[4] = tested on: NCI-H358 cell line (K-Ras G12C); assay: Phospho-ERK1/2(THR202/TYR204) HTRF assay; assay type: cell-based; settings: Homo sapiens; NCI-H358 cells (K-Ras G12C), 2 hours incubation; read-out: p-ERK, IC50(nM) NCI-H358
[5] = molecular target: K-Ras G13D (Homo sapiens, UniProt P01116, G13D); assay: GTP-K-Ras (GppNp-K-Ras) and cRAF interaction assay, HTRF; settings: read-out: Biochemical assays, IC50, K-Ras G13D GppNp
From the text: GppNp is an analog of GTP.

[6] = tested on: NCI-H747 cell line (K-Ras G13D); assay: Phospho-ERK1/2(THR202/TYR204) HTRF assay; assay type: cell-based; settings: Homo sapiens; NCI-H747 cells (K-Ras G13D), 2 hours incubation; read-out: p-ERK, IC50(nM) NCI-H747
[7] = tested on: AGS cell line (K-Ras G12D); assay: Phospho-ERK1/2(THR202/TYR204) HTRF assay; assay type: cell-based; settings: Homo sapiens; AGS cells (K-Ras G12D), 2 hours incubation; read-out: p-ERK, IC50(nM) AGS
[8] = Capan-2 (K-Ras G12V), absolute IC50, read-out: Cell Growth Inhibition, IC50, Capan-2
[9] = NCI-H747 (K-Ras G13D), absolute IC50, read-out: Cell Growth Inhibition, IC50, NCI-H747

C#Cc1c(F)ccc2cc(O)cc(-c3ncc4c(N(C)[C@@H]5C[C@H]5F)nc(OC[C@@]56CCCN5C[C@H](OC)C6)nc4c3F)c12 (mixture of isomers) [Compound 5, 5-ethynyl-6-fluoro-4-(8-fluoro-4-((trans-2-fluorocyclopropyl)(methyl)amino)-2-(((2R,7aS)-2-methoxytetrahydro-1H-pyrrolizin-7a(5H)-yl)methoxy)pyrido[4,3-d]pyrimidin-7-yl)naphthalen-2-ol]
pIC50 [1]: 8.55
pIC50 [2, 8]: 6.91
pIC50 [2, 9]: 7.05
IC50 [3]: 7.37 nM
IC50 [4]: 17.4 nM
pIC50 [5]: 8.20
IC50 [6]: 26.2 nM

[2H]C([2H])([2H])N(c1nc(OC[C@@]23CCCN2C[C@H](F)C3)nc2c(F)c(-c3cc(O)cc4ccc(F)c(C#C)c34)ncc12)C1CC1 [Compound 4, 4-(4-(cyclopropyl(methyl-d3)amino)-8-fluoro-2-(((2R,7aS)-2-fluorotetrahydro-1H-pyrrolizin-7a(5H)-yl)methoxy)pyrido[4,3-d]pyrimidin-7-yl)-5-ethynyl-6-fluoronaphthalen-2-ol]
pIC50 [1]: 8.47
IC50 [7]: 27 nM
pIC50 [2, 8]: 7.14
pIC50 [2, 9]: 7.22
IC50 [3]: 10 nM
pIC50 [5]: 7.86
IC50 [6]: 11.5 nM
